The target of experiment [1] is TSHR(W) tagged with eCFP or eYFP at the C-terminal (mouse) (UniProt P47750).
Experiment [2] deals with wild-type mouse thyroid stimulating hormone receptor, TSHR(W) (mouse) (UniProt P47750).

“bovine thyroid stimulating hormone (TSH) (from UniProt P01217 25-120; P01223 21-132) (ligand)”: the cAMP production of HEK 293 cells transfected with pcDNA-TSHR(W)-eCFP after 30 min with TSH; EC50 of TSH (tagged receptor) in experiment [1] was 18 µU/ml. The cAMP production of HEK 293 cells transfected with pcDNA3-TSHR(W) after 30 min with TSH; EC50 of TSH (untagged receptor) in experiment [2] is 35 µU/ml.

Values taken from PMC3420880.
